Measurements published in paper PMC12567096, “An Efficacy- and In Vivo Exposure-Oriented Integrated Study to Investigate the Effective Components of Qishen Granule” (Pharmaceuticals, 2025).

What was measured:
[1] = Concentrations of 24 analytes in QSG treated plasma (Table S5); conditions: n = 5
[2] = Pharmacokinetic study in rats after oral administration of QSG
[3] = rat plasma, single oral 7 g/kg QSG, n = 6

## Liquiritin apioside
[1]; 0.08 h
  Concentration: 4.615 ± 2.872 ng/mL
[1]; 0.17 h
  Concentration: 18.791 ± 17.432 ng/mL
[1]; 0.5 h
  Concentration: 43.543 ± 9.903 ng/mL
[1]; 1 h
  Concentration: 20.141 ± 7.771 ng/mL
[1]; 2 h
  Concentration: 13.225 ± 5.233 ng/mL
[1]; 4 h
  Concentration: 8.826 ± 3.566 ng/mL
[1]; 8 h
  Concentration: 7.075 ± 1.340 ng/mL
[1]; 12 h
  Concentration: 4.785 ± 0.620 ng/mL
[2]; Table S12, rats, oral QSG
  AUC0→∞: 185.7 ng·h/mL
[2]; exposure (AUC0→∞) of the component in rats after oral QSG, as used for ECI
  AUCi: 185.7
[2]; exposure level (AUC0→∞) compared with the dosage of each compound in QSG
  Oral relative bioavailability: 0.009%
[2]; [3]
  AUC0→t: 176.2 ± 22.47 ng·h/mL
  AUC0→∞: 185.7 ± 23.88 ng·h/mL
  Cmax: 50.54 ± 10.68 ng/mL
  MRT: 7.322 ± 0.9520 h
  T1/2: 7.037 ± 2.092 h
  Tmax: 0.432 ± 0.093 h
